Measured values published in US8088763B2 (priority 2004, dated 2012).

By UniProt entry, the sequences of proteins in these tests, tags left out. Where a name states a change or a piece, a line headed by the entry shows the natural chain unless it says otherwise. Residues count along the entry.
UniProt P35372, whole entry, looked up: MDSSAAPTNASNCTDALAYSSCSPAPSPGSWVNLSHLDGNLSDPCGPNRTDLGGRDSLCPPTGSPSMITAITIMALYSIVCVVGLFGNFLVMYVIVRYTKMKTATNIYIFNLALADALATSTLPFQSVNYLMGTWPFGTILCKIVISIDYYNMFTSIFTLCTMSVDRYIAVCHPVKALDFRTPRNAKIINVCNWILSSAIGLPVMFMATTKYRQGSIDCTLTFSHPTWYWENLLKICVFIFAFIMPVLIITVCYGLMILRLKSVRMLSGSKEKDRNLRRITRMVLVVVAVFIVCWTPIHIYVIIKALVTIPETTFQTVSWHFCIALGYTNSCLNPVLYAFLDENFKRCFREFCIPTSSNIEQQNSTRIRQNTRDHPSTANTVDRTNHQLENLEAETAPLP
UniProt P41146: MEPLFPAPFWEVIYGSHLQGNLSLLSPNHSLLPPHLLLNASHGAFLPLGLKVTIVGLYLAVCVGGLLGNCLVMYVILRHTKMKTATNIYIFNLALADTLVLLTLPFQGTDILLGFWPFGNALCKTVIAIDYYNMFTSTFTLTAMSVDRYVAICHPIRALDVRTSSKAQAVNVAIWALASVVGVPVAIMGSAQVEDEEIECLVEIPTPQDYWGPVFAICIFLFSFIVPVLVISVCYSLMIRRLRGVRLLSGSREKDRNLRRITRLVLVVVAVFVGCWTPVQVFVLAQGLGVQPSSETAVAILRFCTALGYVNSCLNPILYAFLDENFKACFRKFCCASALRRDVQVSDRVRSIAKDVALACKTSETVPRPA
UniProt Q63380, 1-617 limits assumed: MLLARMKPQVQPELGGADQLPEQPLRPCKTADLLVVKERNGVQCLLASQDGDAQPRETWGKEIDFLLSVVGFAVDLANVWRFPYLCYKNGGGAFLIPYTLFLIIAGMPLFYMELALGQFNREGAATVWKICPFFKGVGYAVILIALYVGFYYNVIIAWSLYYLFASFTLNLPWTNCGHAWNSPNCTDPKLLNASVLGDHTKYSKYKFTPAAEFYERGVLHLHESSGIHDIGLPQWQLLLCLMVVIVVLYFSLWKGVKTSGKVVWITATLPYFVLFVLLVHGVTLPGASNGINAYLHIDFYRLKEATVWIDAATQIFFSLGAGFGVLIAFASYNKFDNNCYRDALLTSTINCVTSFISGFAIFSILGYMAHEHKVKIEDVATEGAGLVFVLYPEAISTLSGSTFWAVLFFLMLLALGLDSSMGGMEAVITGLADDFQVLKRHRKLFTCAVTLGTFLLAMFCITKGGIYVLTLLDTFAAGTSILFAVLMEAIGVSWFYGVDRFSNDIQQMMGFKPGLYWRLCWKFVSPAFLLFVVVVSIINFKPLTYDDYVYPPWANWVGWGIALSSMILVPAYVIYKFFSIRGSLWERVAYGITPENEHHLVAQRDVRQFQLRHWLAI
UniProt P31652, whole entry, looked up: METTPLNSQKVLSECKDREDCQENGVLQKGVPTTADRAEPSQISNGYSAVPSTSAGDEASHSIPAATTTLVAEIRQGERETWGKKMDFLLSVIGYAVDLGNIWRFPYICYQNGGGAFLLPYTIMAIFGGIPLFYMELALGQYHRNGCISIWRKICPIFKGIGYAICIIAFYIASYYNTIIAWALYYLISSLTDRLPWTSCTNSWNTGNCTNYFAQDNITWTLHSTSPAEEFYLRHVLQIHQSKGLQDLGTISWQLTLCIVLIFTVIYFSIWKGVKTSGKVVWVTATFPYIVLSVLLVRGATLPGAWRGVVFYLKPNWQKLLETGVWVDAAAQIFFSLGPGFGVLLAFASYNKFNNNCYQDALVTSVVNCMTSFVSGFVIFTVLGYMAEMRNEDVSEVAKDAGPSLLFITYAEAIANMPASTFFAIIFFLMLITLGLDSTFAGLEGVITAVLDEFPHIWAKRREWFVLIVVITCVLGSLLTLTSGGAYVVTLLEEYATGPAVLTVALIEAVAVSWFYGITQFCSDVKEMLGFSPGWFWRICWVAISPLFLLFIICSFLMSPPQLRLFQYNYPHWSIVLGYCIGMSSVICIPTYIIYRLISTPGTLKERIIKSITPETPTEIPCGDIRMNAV

These molecules were tested against human μ-opiate receptor (Homo sapiens, UniProt P35372) (assay: μ-binding: displacement of [3H]-naloxone, receptor membrane preparation of CHO-K1 cells). Details: 1 μM test compound; 1 nmol/l [3H]-naloxone.

Molecule | μ-binding, [1 μM], % inhibition
CN(C)C1(Cc2cccc(Cl)c2)CCC(NC(=O)CCC(=O)NCc2cc(Cl)cc(Cl)c2)CC1 (stereo not drawn) | 60%
Cc1cccc(CC2(N(C)C)CCC(NC(=O)CCC(=O)NCCc3cccs3)CC2)c1 (stereo not drawn) | 59%
Glutaric acid-(4-benzyl-4-dimethylamino- cyclohexyl)-amide[1-(2,6-dichloro-benzyl)- pyrrolidin-3-yl]-amide | 67%
CN(C)C1(Cc2ccccc2)CCC(NC(=O)CCCC(=O)N2CCN(Cc3c(Cl)cccc3Cl)CC2)CC1 (stereo not drawn) | 55%
Cc1cccc(CC2(N(C)C)CCC(NC(=O)CCC(=O)NCc3cccc(Br)c3)CC2)c1 (stereo not drawn) | 53%

What follows are molecules tested against ORL1 receptor (Homo sapiens, UniProt P41146) (assay: ORL1 binding: receptor binding assay with 3H-nociceptin/orphanin FQ, membranes of recombinant CHO-ORL1 cells). Details: 1 μM test compound; 0.5 nM 3H-nociceptin/orphanin FQ.

Molecule | ORL1-binding, [1 μM], % inhibition
CN(C)C1(c2cccs2)CCC(NC(=O)CCCC(=O)N2CC=C(c3ccc(F)cc3)CC2)CC1 (stereo not drawn) | 79%
CN(C)C1(c2ccccc2)CCC(NC(=O)CCC(=O)NCCc2cccc(C(F)(F)F)c2)CC1 (stereo not drawn) | 99%
N-(4-dimethylamino-4-thiophen-2-yl- cyclohexyl)-4-oxo-4-[4-(5-trifluoromethyl- pyndrn-2-yl)-piperazin-1-yl]-butyramide | 49%
CN(C)C1(c2cccs2)CCC(NC(=O)CCCC(=O)NC2CC2c2ccccc2)CC1 (stereo not drawn) | 84%
COc1ccc(Br)cc1CCNC(=O)CCCC(=O)NC1CCC(c2cccs2)(N(C)C)CC1 (stereo not drawn) | 100%
CN(C)C1(c2ccccc2)CCC(NC(=O)CCC(=O)NCCc2cccc(F)c2)CC1 (stereo not drawn) | 94%
Glutaric acid-(4-dimethylamino-4-thiophen- 2-yl-cyclohexyl)-amide[2-(3-methoxy- phenyl)-ethyl]-amide | 95%
CN(C(=O)CCC(=O)NC1CCC(c2cccs2)(N(C)C)CC1)C1CCN(Cc2ccc(-c3ccccc3)cc2)C1 (stereo not drawn) | 60%
Glutaric acid-(4-dimethylamino-4-thiophen- 2-yl-cyclohexyl)-amide 4-trifluoromethyl- benzylamide | 85%
CN(C)C1(c2cccs2)CCC(NC(=O)CCCC(=O)NCc2cc(Cl)ccc2Cl)CC1 (stereo not drawn) | 98%
CCCCCNC(=O)CCC(=O)NC1CCC(c2cccs2)(N(C)C)CC1 (stereo not drawn) | 77%
CN(C)C1(c2cccs2)CCC(NC(=O)CCC(=O)NCCSCc2c(Cl)cccc2Cl)CC1 (stereo not drawn) | 100%
CN(C)C1(c2cccs2)CCC(NC(=O)CCC(=O)NCCc2cccc(Cl)c2)CC1 (stereo not drawn) | 98%
CCCCCNC(=O)CCC(=O)NC1CCC(c2ccccc2)(N(C)C)CC1 (stereo not drawn) | 68%
COc1ccc(OCCNC(=O)CCC(=O)NC2CCC(c3cccs3)(N(C)C)CC2)cc1 (stereo not drawn) | 72%
CN(C)C1(c2cccs2)CCC(NC(=O)CCCC(=O)Nc2ccc(NC(=O)OC(C)(C)C)cc2)CC1 (stereo not drawn) | 86%
CN(CC(=O)OCc1ccccc1)C(=O)CCCC(=O)NC1CCC(c2cccs2)(N(C)C)CC1 (stereo not drawn) | 98%
Glutaric acid-(4-dimethylamino-4-thiophen- 2-yl-cyclohexyl)-amide[2-(1H-indol-3-yl)- ethyl]-amide | 99%
CN(C)C1(c2cccs2)CCC(NC(=O)CCC(=O)NCC23CC4CC(CC(C4)C2)C3)CC1 (stereo not drawn) | 90%
CN(C)C1(c2cccs2)CCC(NC(=O)CCCC(=O)NC2CCc3ccccc32)CC1 (stereo not drawn) | 80%
CC(CNC(=O)CCCC(=O)NC1CCC(c2cccs2)(N(C)C)CC1)c1ccc(Cl)cc1 (stereo not drawn) | 98%
CC(CCc1ccccc1)NC(=O)CCCC(=O)NC1CCC(c2cccs2)(N(C)C)CC1 (stereo not drawn) | 90%

Molecule | ORL1-binding, [1 μM], % inhibition
N-[2-(2,6-dichloro-phenyl)-ethyl]-N′-(4- dimethylainino-4-thiophen-2-yl-cyclohexyl)- succinamide | 96%
CN(C)C1(c2cccs2)CCC(NC(=O)CCCC(=O)NC2CCC(C(C)(C)C)CC2)CC1 (stereo not drawn) | 91%
CN(CCc1c[nH]c2ccccc12)C(=O)CCC(=O)NC1CCC(c2cccs2)(N(C)C)CC1 (stereo not drawn) | 99%
CCC(C)c1ccc(NC(=O)CCCC(=O)NC2CCC(c3cccs3)(N(C)C)CC2)cc1 (stereo not drawn) | 94%
CN(C)C1(c2cccs2)CCC(NC(=O)CCC(=O)NCCOc2ccccc2)CC1 (stereo not drawn) | 90%
CN(C)C1(c2cccs2)CCC(NC(=O)CCC(=O)NCCc2ccc(Br)cc2)CC1 (stereo not drawn) | 88%
CN(C)C1(c2cccs2)CCC(NC(=O)CCC(=O)NCCc2cccc(C(F)(F)F)c2)CC1 (stereo not drawn) | 98%
CN(C)C1(c2cccs2)CCC(NC(=O)CCC(=O)N2CCC(O)(c3cccc(C(F)(F)F)c3)CC2)CC1 (stereo not drawn) | 82%
CN(C)C1(c2cccs2)CCC(NC(=O)CCCC(=O)Nc2ccc(C(C#N)c3ccccc3)cc2)CC1 (stereo not drawn) | 77%
CC(NC(=O)CCC(=O)NC1CCC(c2cccs2)(N(C)C)CC1)C(=O)OCc1ccccc1 (stereo not drawn) | 91%
CN(C)C1(c2ccccc2)CCC(NC(=O)CCC(=O)N2CCC(O)(c3cccc(C(F)(F)F)c3)CC2)CC1 (stereo not drawn) | 77%
CN(C)C1(c2cccs2)CCC(NC(=O)CCC(=O)NCCSCc2ccccc2)CC1 (stereo not drawn) | 98%
CC(C)CC(NC(=O)CCCC(=O)NC1CCC(c2cccs2)(N(C)C)CC1)C(=O)OCc1ccccc1 (stereo not drawn) | 75%
C=C(C)CN(CC)C(=O)CCCC(=O)NC1CCC(c2cccs2)(N(C)C)CC1 (stereo not drawn) | 78%
CN(CCCNC(=O)CCC(=O)NC1CCC(c2cccs2)(N(C)C)CC1)c1ccccc1 (stereo not drawn) | 88%
CN(C)C1(c2cccs2)CCC(NC(=O)CCCC(=O)Nc2ccc(OCc3ccccc3)cc2)CC1 (stereo not drawn) | 90%
CN(C)C1(c2cccs2)CCC(NC(=O)CCCC(=O)NCc2cccc3ccccc23)CC1 (stereo not drawn) | 98%
CN(C)C1(c2cccs2)CCC(NC(=O)CCCC(=O)NCC(C)(c2ccccc2)c2ccccc2)CC1 (stereo not drawn) | 71%
CN(C)C1(c2ccccc2)CCC(NC(=O)CCC(=O)NCCc2ccc(Cl)c(Cl)c2)CC1 (stereo not drawn) | 99%
CCN(CCNC(=O)CCC(=O)NC1CCC(c2ccccc2)(N(C)C)CC1)c1cccc(C)c1 (stereo not drawn) | 71%
CN(C)C1(c2ccccc2)CCC(NC(=O)CCC(=O)N(CCc2ccccc2)Cc2ccccc2)CC1 (stereo not drawn) | 86%
Glutaric acid-(4-dimethylamino-4-thiophen- 2-yl-cyclohexyl)-amide 3-trifluoromethoxy- benzylamide | 92%

Molecule | ORL1-binding, [1 μM], % inhibition
CN(Cc1ccccc1)C(=O)CCCC(=O)NC1CCC(c2cccs2)(N(C)C)CC1 (stereo not drawn) | 96%
COc1ccc(OCCNC(=O)CCC(=O)NC2CCC(c3ccccc3)(N(C)C)CC2)cc1 (stereo not drawn) | 74%
CN(C)C1(c2ccccc2)CCC(NC(=O)CCC(=O)NCCc2ccccc2Cl)CC1 (stereo not drawn) | 93%
CCCCc1ccc(NC(=O)CCCC(=O)NC2CCC(c3cccs3)(N(C)C)CC2)cc1 (stereo not drawn) | 97%
CN(C)C1(c2cccs2)CCC(NC(=O)CCC(=O)NCCc2ccc(Oc3ccccc3)cc2)CC1 (stereo not drawn) | 98%
CC(NC(=O)CCCC(=O)NC1CCC(c2cccs2)(N(C)C)CC1)C12CC3CC(CC(C3)C1)C2 (stereo not drawn) | 76%
Glutaric acid-(4-dimethylamino-4-thiophen- 2-yl-cyclohexyl)-amide[2-(4-fluoro- phenyl)-ethyl]-amide | 95%
CN(C)C1(c2cccs2)CCC(NC(=O)CCCC(=O)NC2CCN(Cc3c(Cl)cccc3Cl)C2)CC1 (stereo not drawn) | 95%
CN(C)C1(c2cccs2)CCC(NC(=O)CCCC(=O)NCCc2cccs2)CC1 (stereo not drawn) | 97%
CN(C)C1(c2cccs2)CCC(NC(=O)CCCC(=O)NCCc2ccc(Br)cc2)CC1 (stereo not drawn) | 99%
CN(C)C1(c2cccs2)CCC(NC(=O)CCCC(=O)N2CCN(Cc3cc4ccccc4o3)CC2)CC1 (stereo not drawn) | 57%
CN(C)C1(c2cccs2)CCC(NC(=O)CCC(=O)Nc2ccc(Oc3ccccc3)cc2)CC1 (stereo not drawn) | 72%
COc1ccc2ccccc2c1CN1CCN(C(=O)CCCC(=O)NC2CCC(c3cccs3)(N(C)C)CC2)CC1 (stereo not drawn) | 82%
CCN(CCNC(=O)CCC(=O)NC1CCC(c2cccs2)(N(C)C)CC1)c1cccc(C)c1 (stereo not drawn) | 73%
CN(C)C1(c2cccs2)CCC(NC(=O)CCCC(=O)NC2CCCC2OCc2ccccc2)CC1 (stereo not drawn) | 64%
CN(C)C1(c2ccccc2)CCC(NC(=O)CCC(=O)N2CCC(Cc3ccccc3)CC2)CC1 (stereo not drawn) | 95%
CN(C)C1(c2cccs2)CCC(NC(=O)CCCC(=O)NCc2cccc(Cl)c2)CC1 (stereo not drawn) | 93%
CCN(Cc1ccccc1)C(=O)CCC(=O)NC1CCC(c2cccs2)(N(C)C)CC1 (stereo not drawn) | 92%
CN(C)C1(c2cccs2)CCC(NC(=O)CCCC(=O)NCCC(c2ccccc2)c2ccccc2)CC1 (stereo not drawn) | 86%
CN(C)C1(c2cccs2)CCC(NC(=O)CCC(=O)N2CCC(Cc3ccccc3)CC2)CC1 (stereo not drawn) | 96%
CN(C)C1(c2ccccc2)CCC(NC(=O)CCC(=O)NCC23CC4CC(CC(C4)C2)C3)CC1 (stereo not drawn) | 72%
Glutaric acid-(4-dimethylamino-4-thiophen- 2-yl-cyclohexyl)-amide[2-(4-phenoxy- phenyl)-ethyl]-amide | 99%

What follows are molecules tested against NA-uptake (Rattus norvegicus, UniProt Q63380) (assay: Noradrenalin re-uptake in rat brain synaptosomes (P2 fraction, hypothalamus)). Details: 10 μM test compound.
Format: biochemical

Molecule | NA-uptake [10 μM], % inhibition
CN(C)C1(Cc2cccc(Cl)c2)CCC(NC(=O)CCC(=O)NCc2cc(Cl)cc(Cl)c2)CC1 (stereo not drawn) | 94%
Cc1cccc(CC2(N(C)C)CCC(NC(=O)CCC(=O)NCCc3cccs3)CC2)c1 (stereo not drawn) | 85%
Glutaric acid-(4-benzyl-4-dimethylamino- cyclohexyl)-amide[1-(2,6-dichloro-benzyl)- pyrrolidin-3-yl]-amide | 102%
CN(C)C1(Cc2ccccc2)CCC(NC(=O)CCCC(=O)N2CCN(Cc3c(Cl)cccc3Cl)CC2)CC1 (stereo not drawn) | 95%
Cc1cccc(CC2(N(C)C)CCC(NC(=O)CCC(=O)NCc3cccc(Br)c3)CC2)c1 (stereo not drawn) | 102%

What follows are molecules tested against 5HT-uptake (Rattus norvegicus, UniProt P31652) (assay: Serotonin re-uptake in rat brain synaptosomes (P2 fraction, medulla+pons)). Details: 10 μM test compound.
Format: biochemical

Molecule | 5HT-uptake [10 μM], % inhibition
CN(C)C1(Cc2cccc(Cl)c2)CCC(NC(=O)CCC(=O)NCc2cc(Cl)cc(Cl)c2)CC1 (stereo not drawn) | 92%
Cc1cccc(CC2(N(C)C)CCC(NC(=O)CCC(=O)NCCc3cccs3)CC2)c1 (stereo not drawn) | 92%
Glutaric acid-(4-benzyl-4-dimethylamino- cyclohexyl)-amide[1-(2,6-dichloro-benzyl)- pyrrolidin-3-yl]-amide | 96%
CN(C)C1(Cc2ccccc2)CCC(NC(=O)CCCC(=O)N2CCN(Cc3c(Cl)cccc3Cl)CC2)CC1 (stereo not drawn) | 100%
Cc1cccc(CC2(N(C)C)CCC(NC(=O)CCC(=O)NCc3cccc(Br)c3)CC2)c1 (stereo not drawn) | 97%
